PMC11170759, “Advancing Parkinson’s Disease Diagnostics: The Potential of Arylpyrazolethiazole Derivatives for Imaging α-Synuclein Aggregates” (ACS Omega, 2024)

Target: human recombinant α-syn fibrils (Homo sapiens, UniProt P37840)
Assay: [3H]MODAG-001 saturation binding assay on α-syn fibrils
Details: read-out: Kd of [3H]MODAG-001 on α-syn fibrils, tested as the radiolabelled form

Kd: 4.4 nM
SMILES: CN(C)c1ccc(-c2cc(-c3ccnc(Br)c3)n[nH]2)cc1
